Apparent affinities of Ab-14 variants for a coronavirus HR2 peptide

The target is the same throughout: PDVDLGDISGINAS, from the HR2 region of SARS-CoV-2 spike.

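Phage display of a naive human antibody library on the peptide gave the parent. The library (AAYL49) carries one to three amino acid substitutions per variant, with no insertions or deletions. The assay is AlphaSeq: two haploid yeast populations carry antibody and antigen on their surface. Binding brings cells together so that they mate, and sequencing counts the barcode pairs among the diploids. The ratio of observed to expected reads was calibrated, replicate by replicate, on BCL2-family standards whose Kd was known from biolayer interferometry. There are three technical replicates.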

Parent: Ab-14, a human scFv built as VH, the linker GGGGSGGGGSGGGGS, VL. Only the CDRs of the heavy chain vary.
VH: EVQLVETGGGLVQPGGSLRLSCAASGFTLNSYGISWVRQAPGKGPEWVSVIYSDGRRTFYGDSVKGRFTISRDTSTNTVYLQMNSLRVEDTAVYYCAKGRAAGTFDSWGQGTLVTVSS
VL: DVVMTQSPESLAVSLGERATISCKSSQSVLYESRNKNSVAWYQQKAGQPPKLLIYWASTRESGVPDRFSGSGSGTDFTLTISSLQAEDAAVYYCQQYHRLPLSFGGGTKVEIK

The parent's heavy chain CDRs are GFTLNSYGIS, VIYSDGRRTFYGDSVK, GRAAGTFDS; each variant's own CDRs replace them letter for letter. Kd is apparent (estimated from mating counts) and averaged on the log scale over replicates with a signal. Smaller is tighter. An entry "nd" has no value in the source: the pair was not observed among the diploids in any replicate. This suggests poor binding but is not conclusive. Three control strains display no target. For library AAYL49, 15% of the pairings with them gave a signal, with a median of 11 µM and one signal in twenty below 680 nM, so weak values seen in few replicates may be background. For reference, the parent read 4.4 nM as the reference entry and 13 µM (one replicate of three) as a member of this library.

CDR-H1 | CDR-H2 | CDR-H3 | apparent Kd | replicates with signal
GFTLNSYGIS | VIYSDGVRTFYGDQVK | YRAAGTFDS | 30 µM | 2 of 3
GFTLNSYGCS | VINSDGRRTFYGDSVK | GRAAGTFDR | nd | 0 of 3
GFTLNSYGIS | VIYYDGRRTFYGDSVK | GRAAMTFDS | 760 nM | 1 of 3
GFTLNSYGIS | VIRSDGRRMFYGDSVK | GRRAGTFDS | nd | 0 of 3
GFTLNSYGIN | VIYSDGRRTFYGDPVK | GRAAGTFKS | nd | 0 of 3
MFTLNSYGIS | VIQSDGRRTFYGDSVK | GRAAGTFDS | 510 nM | 1 of 3
GFLLNSYGIS | VLYSDGRRTFYGDSVK | GRACGTFDS | 57 µM | 2 of 3
GFTLYSYGIS | VIYSDGGRTFYGDSVK | GRAAHTFDS | 3.6 µM | 3 of 3
GFTLNSYMIL | VTYSDGRRTFYGDSVK | GRAAGTFDS | nd | 0 of 3
GFSLNSYGIS | VIYSDGRRTFYFDSVK | GRAAITFDS | nd | 0 of 3
GFTLNSYGIS | VIYTDGRRTFYGDRVC | GRAAGTFDS | nd | 0 of 3
GFTLNSYHIS | VIYSDGRRTFYGMSVK | GRATGTFDS | nd | 0 of 3
EFTLNSYGIS | VIYSDGRRTFYGDSVK | GMAAGTFDS | 4.9 µM | 1 of 3
GFTLNSYGLS | VIYSDGRRTFYGDSVK | GRAACTFDS | 18 µM | 1 of 3
GDTLNSNGIS | VIYSDGRRTFYGDSVK | GRAAGTFDS | 12 µM | 2 of 3
GFTLNSYGIS | VIESDYRRTFYGDSVK | GRAAGNFDS | 3.4 µM | 1 of 3
GFTLNSYGVS | VIYSAGRRTFYGDSVK | GRAAGIFDS | 74 µM | 3 of 3
GFTLNSYGIT | VIYSDGRRTRYGDSVK | PRAAGTFDS | nd | 0 of 3
GFTLNSYGIS | NIYSDGRRQFYGDSVK | GRAAGTFDS | nd | 0 of 3
GFTLNSYGCS | VIYSDGRRHFYGDSVK | GRAAGTFDS | nd | 0 of 3
GFTLNSYGIS | RIYSDGRRTFYGDSYK | GRPAGTFDS | 2.6 µM | 1 of 3
GFTLNFYGIS | VIYSDPRGTFYGDSVK | GRAAGTFDS | nd | 0 of 3
GFTLNSYGIS | VIYSDGRRHGYGDSVK | GRAAGGFDS | nd | 0 of 3
GFTLNSYGIS | VIYSDGRWTFYGDSVK | LRAAGTFDS | nd | 0 of 3
VFTLCSYGIS | VIYSDGRRTFYGDFVK | GRAAGTFDS | 7.9 µM | 1 of 3
GFTLNSYGIS | VIYSDTRRTFYGDSVK | GMAATTFDS | nd | 0 of 3
GFTLNSYGIC | VIYSDGRRTFYGDSVK | SRAAGTFDS | nd | 0 of 3
GFTLNSFGIS | VIYSDGRRGFYGDSVK | GRAATTFDS | 260 µM | 2 of 3
GFTLNSYGIS | VIYSDGRRTFYGDSKK | GRAAGYFDS | 7.8 µM | 1 of 3
GFTLNSYGYS | VIVSDGCRTFYGDSVK | GRAAGTFDS | nd | 0 of 3
GFTLNEYGIS | VIYSDGRRTFYGDSVK | GCAAGTPDS | 45 µM | 1 of 3
GFTLNSYGIS | VNYSDGRRTFYCDSVK | GRAAGTFDS | 1.3 µM | 1 of 3
GFWLNSYGIS | VIYSDGRRTGYGDSVK | GRAAGTFDD | 74 nM | 3 of 3
GSTLFSYGIS | VIYSDGRRTFYGDSVI | GRAAGTFDS | nd | 0 of 3
GFTLNSYGII | VDYSDGRRTFYGDSVK | GRAAGTFCS | 11 µM | 1 of 3
GFTLNSYGIS | PIYSDGRRTFYGDSVK | GRAAGTRDS | nd | 0 of 3
GFTLNSYGIS | VIYSDGRRTFYGTSVK | GVAAGTFRS | 560 nM | 3 of 3
GFTMNSYGIS | VIYSDGRRTFYGDSSK | GRAAGTFNS | 18 µM | 2 of 3
GFTLNSYGIS | VICSDGRRTFYGDQVK | GRAAGTLDS | nd | 0 of 3
GFTLNSYGIS | VIYSDGRGTFYGDSNK | GRAAGTFDS | 84 µM | 1 of 3
GFTLNSYFLS | VIYSDGRWTFYGDSVK | GRAAGTFDS | 2.7 µM | 1 of 3
GFTLNSYGIS | VIYSDGRRTFYSDVVK | GRAAGSFDS | 1.9 µM | 3 of 3
GFTGNSYGIS | VVYSDGRRTFYGDSVK | GRAAGTFPS | 260 µM | 1 of 3
GFTLNSYGHS | VIYSDGRRTFYGDSVK | GRARGEFDS | nd | 0 of 3
GFTLNSYGAS | VIYSDGRRTFYGDSVK | GRKAGHFDS | nd | 0 of 3
GFTLNSYGIS | VNYSDGRRGFYGDSVK | GMAAGTFDS | nd | 0 of 3
GFTQNSYGIS | VQYSDGRRTFYGDSFK | GRAAGTFDS | 8.6 µM | 1 of 3
GFTLNSYLIS | VIYSDERRTFYGDSVK | GRATGTFDS | nd | 0 of 3
GFTLNSYGIS | VIYSDGKRIFYGDSVK | GRAAGTFDS | 14 nM | 3 of 3
GFTLNLYGIS | VIYSDGRRTFYRDSVK | GRAAGTFDV | nd | 0 of 3
GFTLNSYNIS | VYYSDGRRTFYGDSVK | GRAAGTADS | 35 µM | 1 of 3
GFTLQSYGIS | VIYSDGRRTFYGDSVK | ERAAGTFDF | nd | 0 of 3
GFTLNSYGIS | VIRSDGRRTGYGDSVK | GRAAGTFDM | nd | 0 of 3
PFTLNSYGIS | VIYSDGRRTFTGDSVK | GRAAGTFDS | 3.3 µM | 2 of 3
GFTLNSYGIS | VIYSDGRRTFYGDSVK | GFDAGTFDS | 70 nM | 3 of 3
GFTLNSYGIS | VIYSDGQRTFYGDMHK | GRAAGTFDS | nd | 0 of 3
GFTPGSYGIS | VIYSDGRRTFYGDSVK | GRAAGTFDS | 3.8 µM | 2 of 3
GFTLNSYGIS | VIFSDGRRTFRGDSVK | GRAAHTFDS | 11 µM | 1 of 3
GFTLNSYGIS | VIYFDGRSTKYGDSVK | GRAAGTFDS | 47 µM | 1 of 3
GFTLNSYGIS | VIYSDGRRTFYGDSVK | GRAAGPIDP | 20 µM | 1 of 3
LFTLNSYGIS | VIYSFGRRTKYGDSVK | GRAAGTFDS | 11 µM | 1 of 3
GFTLNSYGIS | VIYSRGRRTFYGDSVK | YRAAGTRDS | nd | 0 of 3

A selection of 10 entries from above:

CDR-H1,CDR-H2,CDR-H3,apparent Kd,replicates with signal
GFTLNSYGIS,VIYSDGKRIFYGDSVK,GRAAGTFDS,14 nM,3 of 3
GFTLNSYGIS,VIESDYRRTFYGDSVK,GRAAGNFDS,3.4 µM,1 of 3
GFTLNSYGIS,VIRSDGRRMFYGDSVK,GRRAGTFDS,nd,0 of 3
GFTLNEYGIS,VIYSDGRRTFYGDSVK,GCAAGTPDS,45 µM,1 of 3
GFTLNSYGIS,VIYSRGRRTFYGDSVK,YRAAGTRDS,nd,0 of 3
GFTLNSYGIS,VICSDGRRTFYGDQVK,GRAAGTLDS,nd,0 of 3
GFTLNSYGIS,VIRSDGRRTGYGDSVK,GRAAGTFDM,nd,0 of 3
GFTLNSYGIS,VIYSDGRRTFYGDSKK,GRAAGYFDS,7.8 µM,1 of 3
GFTLNFYGIS,VIYSDPRGTFYGDSVK,GRAAGTFDS,nd,0 of 3
PFTLNSYGIS,VIYSDGRRTFTGDSVK,GRAAGTFDS,3.3 µM,2 of 3

Values reported by Engelhart et al. 2022, doi:10.1038/s41597-022-01779-4 (FLAb copy).